Assay [1] in a line: small-molecule binders of probe aLefty1, primary screen, biochemical, small-molecule microarray, 635/667 nm fluorescence (AID 1153).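 Note: score merges spot fluorescence with signal-to-noise ratio from the scanned slide images.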 To be noted: higher = more signal.
A short description of assay [2]: osmotic lysis modulators in infected erythrocytes, primary screen, PSAC antagonist project, cell-based, P. falciparum Indochina, OD700, 3 h (AID 1156). Conditions: higher = more signal, called active from +8 up or from −8 down.
The nature of assay [3]: PSAC antagonists in infected red cells, primary screen, cell-based, P. falciparum Indochina, OD700, 18 h (AID 1157). To be noted: P. falciparum Indochina infected erythrocytes, osmotic lysis OD700, 18 h; higher = more signal, called active from +8 up or from −8 down.
Assay [4] is described as follows: modulators of S6 phosphorylation in cells, primary screen, cell-based, A549, cytoblot, luminescence, serum-stimulated (AID 1158).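 Note: serum-stimulated A549 lung adenocarcinoma cells; signal is phosphorylated S6 detected by cytoblot immunostaining with HRP secondary.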 Conditions: A549 phospho-S6 cytoblot, 5 h, higher = more signal.
Assay [5] deals with NADPH oxidase 2 (Homo sapiens) (UniProt P04839). The assay is described as follows: NOX2-dependent H2O2 signal modulators, primary screen, NOX inhibitor project, cell-based, HEK293-NOX2, PMA-stimulated, Amplex Red fluorescence (AID 1159). Note: test concentration not given here. Conditions: 45 min, higher = more signal, called active from +8 up or from −8 down.
Assay [6] deals with NADPH oxidase 4 (Homo sapiens) (UniProt Q9NPH5). Nature of the assay: NOX4-dependent H2O2 signal modulators, primary screen, NOX inhibitor project, cell-based, HEK293-NOX4, tetracycline-induced, Amplex Red fluorescence (AID 1160). To be noted: 45 min, higher = more signal, called active from +8 up or from −8 down.
Assay [7] deals with NADPH oxidase 5 (Homo sapiens) (UniProt Q96PH1). Nature of the assay: NOX5-dependent H2O2 signal modulators, primary screen, NOX inhibitor project, cell-based, HEK293-NOX5, Amplex Red fluorescence (AID 1161). To be noted: HEK293-NOX5, ionomycin, 45 min, higher = more signal.
A short description of assay [8]: A549 cell viability effects, profiling panel, calcein-AM fluorescence, 48 h, basal (AID 1162). Note: test concentration not given here. To be noted: higher = more signal.
Assay [9] can be described thus: adipocyte viability effects, profiling panel, cell-based, 3T3-L1 adipocytes, calcein-AM fluorescence, 48 h, basal (AID 1163). Note: test concentration not given here. Conditions: 3T3-L1 adipocytes viability, higher = more signal.
Assay [10] can be described thus: HepG2 cell viability effects, profiling panel, calcein-AM fluorescence, 48 h, basal (AID 1164). Note: test concentration not given here. Conditions: higher = more signal.
The nature of assay [11]: MM1S cell viability effects, profiling panel, calcein-AM fluorescence, 48 h, basal (AID 1165).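 Note: viability of MM1S multiple myeloma cells under basal unstimulated conditions; test concentration not given here.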 To be noted: higher = more signal.
Assay [12] in a line: basal RPMI8226 viability, no added stimulus, profiling panel, cell-based, calcein-AM fluorescence, 48 h, PK04 Diversity Set (AID 1166).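 Note: cells grown under basal conditions without added stimulus; test concentration not given here.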 Conditions: RPMI8226 myeloma viability, higher = more signal.
Assay [13] can be described thus: basal HepG2 mitochondrial membrane potential changes, profiling panel, cell-based, JC-1 fluorescence, 24 h, 100 nL compound (AID 1167). Note: test concentration not given here. Conditions: higher = more signal.
Assay [14] can be described thus: basal 3T3-L1 adipocyte mitochondrial potential changes, profiling panel, cell-based, JC-1 fluorescence, 3T3-L1 adipocytes, 24 h, 100 nL compound (AID 1168). Note: test concentration not given here. Conditions: JC-1 mitochondrial fluorescence, higher = more signal, called active from +8 up or from −8 down.
Assay [15] in a line: basal RPMI8226 mitochondrial membrane potential changes, profiling panel, cell-based, JC-1 fluorescence, 24 h, 100 nL compound (AID 1169). Note: test concentration not given here. To be noted: RPMI8226 myeloma, JC-1 mitochondrial potential fluorescence, higher = more signal.
Assay [16] can be described thus: basal MM1S mitochondrial membrane potential changes, profiling panel, cell-based, JC-1 fluorescence, 24 h, 100 nL compound (AID 1170). Note: test concentration not given here. To be noted: higher = more signal.
The nature of assay [17]: A549 lung cancer cell viability effects, profiling panel, resazurin fluorescence, 24 h, PK04 Diversity Set (AID 1171). Note: test concentration not given here. To be noted: higher = more signal, called active from +8 up or from −8 down. Background: The colour change of resazurin is a common sign of viable cells or microbes.
Assay [18] in a line: HepG2 liver cancer cell viability effects, profiling panel, resazurin fluorescence, 24 h, PK04 Diversity Set (AID 1172). Note: test concentration not given here. Conditions: higher = more signal.
Assay [19] can be described thus: basal S. cerevisiae growth modulation, no modifier, primary screen, OD600, strain BY4716, 24 h, basal condition (AID 1173). To be noted: OD600, 24 h, higher = more signal, called active from +8 up or from −8 down.
Assay [20] in a line: MM1S myeloma cell viability, profiling panel, resazurin fluorescence, basal, 24 h, PK04 Diversity Set (AID 1174). Note: test concentration not given here. Conditions: higher = more signal, called active from +8 up or from −8 down.

Amino acid sequences for entries named in this document (tags omitted). A change or cut given only in a name is not applied to a line headed by its entry.
UniProt P04839: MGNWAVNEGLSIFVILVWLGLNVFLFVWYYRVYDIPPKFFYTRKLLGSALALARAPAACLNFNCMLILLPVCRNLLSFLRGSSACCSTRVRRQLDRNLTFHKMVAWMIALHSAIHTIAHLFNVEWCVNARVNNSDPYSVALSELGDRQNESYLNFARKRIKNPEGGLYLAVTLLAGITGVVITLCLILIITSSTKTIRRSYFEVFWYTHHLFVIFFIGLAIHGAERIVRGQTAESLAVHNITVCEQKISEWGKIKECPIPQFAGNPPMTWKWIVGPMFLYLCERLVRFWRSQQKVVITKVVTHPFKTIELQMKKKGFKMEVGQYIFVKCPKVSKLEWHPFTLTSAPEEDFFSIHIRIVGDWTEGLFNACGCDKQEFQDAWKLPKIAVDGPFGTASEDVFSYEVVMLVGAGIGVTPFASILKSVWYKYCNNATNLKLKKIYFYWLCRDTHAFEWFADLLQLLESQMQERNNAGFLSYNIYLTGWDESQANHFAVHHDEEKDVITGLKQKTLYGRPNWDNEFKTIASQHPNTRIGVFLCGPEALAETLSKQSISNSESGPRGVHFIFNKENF
UniProt Q9NPH5: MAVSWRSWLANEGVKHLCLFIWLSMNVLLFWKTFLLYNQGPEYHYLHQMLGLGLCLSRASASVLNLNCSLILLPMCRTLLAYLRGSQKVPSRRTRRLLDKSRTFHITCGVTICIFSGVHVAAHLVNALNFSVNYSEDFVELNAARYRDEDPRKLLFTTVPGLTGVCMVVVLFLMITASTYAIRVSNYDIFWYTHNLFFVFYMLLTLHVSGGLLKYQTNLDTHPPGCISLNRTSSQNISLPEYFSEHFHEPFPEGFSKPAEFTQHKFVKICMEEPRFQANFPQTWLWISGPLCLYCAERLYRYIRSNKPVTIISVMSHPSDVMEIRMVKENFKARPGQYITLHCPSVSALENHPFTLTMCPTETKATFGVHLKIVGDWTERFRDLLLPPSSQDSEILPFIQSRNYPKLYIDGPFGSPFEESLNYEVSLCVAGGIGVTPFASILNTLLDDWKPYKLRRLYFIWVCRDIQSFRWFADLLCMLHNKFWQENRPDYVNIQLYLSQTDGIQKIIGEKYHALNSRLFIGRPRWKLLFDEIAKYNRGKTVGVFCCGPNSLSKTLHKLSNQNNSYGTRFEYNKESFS
UniProt Q96PH1: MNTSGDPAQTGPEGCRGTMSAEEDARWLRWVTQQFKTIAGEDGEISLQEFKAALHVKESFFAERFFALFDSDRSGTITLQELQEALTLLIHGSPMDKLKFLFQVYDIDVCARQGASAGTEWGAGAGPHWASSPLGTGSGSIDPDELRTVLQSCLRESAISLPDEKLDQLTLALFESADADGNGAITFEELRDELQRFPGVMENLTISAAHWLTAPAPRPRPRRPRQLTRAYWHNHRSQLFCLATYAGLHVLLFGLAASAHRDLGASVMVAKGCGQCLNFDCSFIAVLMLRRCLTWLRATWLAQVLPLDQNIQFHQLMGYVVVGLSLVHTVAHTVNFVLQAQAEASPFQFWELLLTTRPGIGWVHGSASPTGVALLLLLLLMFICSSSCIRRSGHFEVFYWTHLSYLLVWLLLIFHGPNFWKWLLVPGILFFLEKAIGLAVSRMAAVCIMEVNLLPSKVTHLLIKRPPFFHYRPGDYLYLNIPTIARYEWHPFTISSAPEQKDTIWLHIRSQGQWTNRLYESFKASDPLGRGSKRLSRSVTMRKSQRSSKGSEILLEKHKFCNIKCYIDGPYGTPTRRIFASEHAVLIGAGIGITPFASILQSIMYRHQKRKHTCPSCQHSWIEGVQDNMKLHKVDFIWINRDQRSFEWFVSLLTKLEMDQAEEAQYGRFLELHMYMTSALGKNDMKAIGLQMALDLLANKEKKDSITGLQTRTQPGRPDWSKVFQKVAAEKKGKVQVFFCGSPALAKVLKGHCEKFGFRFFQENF

Molecules are shown by their SMILES. The list shows a part of the results, in another mix than the full data. The list shows a part of the results. The source made the active and inactive calls.

On to `CN1/C(=N\P(=O)(Oc2ccccc2)Oc2ccccc2)CC(CCCO)=CC1C1CC1` (stereo not given), for which the composite z-score in assay [1] was 0.159. For the same compound, the z-score is inactive: 0.252 in [2]; inactive: -2.47 in assay [3]; 1.77 in assay [4]; inactive: 0.0706 in [5]; inactive: -0.19 in assay [6]; 0.575 in [7]. For the same compound, the z-score is 0.615 in [8]; 0.0619 in assay [9]; 0.0325 in assay [10]; 0.544 in assay [11]; 1.02 in assay [12]; 1.38 in assay [13]. Moreover, the z-score was inactive: -0.0671 in [14]; -0.893 in assay [15]; 0.0912 in [16]; inactive: -1.64 in [17]; -1.08 in assay [18]; inactive: -0.229 in [19]. Besides, the z-score in assay [20] is inactive: -1.02.
In [1], `O=P(/N=C1/CC(CCCO)=CC(c2ccc(CN3CCCC3)cc2)N1Cc1cc2c(cc1Br)OCO2)(Oc1ccccc1)Oc1ccccc1` (stereo not given) displayed a composite z-score of 0.0627. The z-score in [2] is inactive: 0.889; in assay [3], inactive: 0.302; in assay [4], 0.291; in [5], inactive: 0.123; in [6], inactive: 0.606; in assay [7] it was 0.495. The z-score is -0.721 in assay [8]; 0.378 in [9]; -0.978 in [10]; -0.29 in assay [11]; -0.195 in [12]; 0.396 in assay [13]. The z-score is inactive: -0.499 in assay [14]; 1.21 in [15]; -0.367 in assay [16]; inactive: 0.65 in [17]; 0.572 in assay [18]; inactive: -0.607 in [19]. Further, the z-score in [20] was inactive: 0.101.
With `O=P(/N=C1/CC(c2ccc(CO)cc2)=CC(C2CC2)N1Cc1sc2ccccc2c1Cl)(Oc1ccccc1)Oc1ccccc1` (stereo not given), in assay [1], the composite z-score is 0.302. The z-score is inactive: 1.39 in assay [2]; inactive: 1.02 in [3]; 0.181 in assay [4]; inactive: -1.32 in [5]; inactive: -0.578 in [6]; -0.241 in assay [7]. In addition, the z-score was -1.54 in [8]; 1.37 in assay [9]; -0.263 in [10]; -1.95 in assay [11]; -3.46 in assay [12]; 0.792 in [13]. For the same compound, the z-score in assay [14] was inactive: -0.518; in assay [15], -0.822; in assay [16] it was -0.149; in assay [17], inactive: -1.71; in assay [18], -0.0412; in assay [19], inactive: -4.28. In addition, the z-score in assay [20] is inactive: -2.97.
For `COP(=O)(/N=C1/CC(c2ccc(CO)cc2)=CC(C2CC2)N1Cc1sc2ccccc2c1Cl)OC` (stereo not given), the composite z-score in [1] is 0.607. Also, the z-score is inactive: 0.469 in assay [2]; inactive: -0.551 in [3]; 3.31 in [4]; inactive: 0.289 in assay [5]; inactive: 0.782 in assay [6]; 0.537 in assay [7]. In addition, the z-score was 1.4 in assay [8]; 2.12 in assay [9]; 0.369 in [10]; -3.22 in [11]; -3.72 in [12]; 3.07 in assay [13]. In addition, the z-score in [14] was inactive: 2.81; in assay [15], -0.659; in assay [16] it was -1.16; in [17], inactive: -1.03; in [18], 1.5; in [19], active: -8.03. Further, the z-score in assay [20] is inactive: -2.06.
`O=P(/N=C1/CC(CCCO)=CC(C2CC2)N1Cc1sc2ccccc2c1Cl)(Oc1ccccc1)Oc1ccccc1` (stereo not given): the composite z-score in [1] worked out at 0.0547. In addition, the z-score is inactive: 0.294 in [2]; inactive: 0.77 in [3]; -0.126 in [4]; inactive: -0.0663 in assay [5]; inactive: -0.111 in assay [6]; 1.74 in assay [7]. The z-score in assay [8] was -1.19; in assay [9] it was 0.109; in assay [10], 1.01; in assay [11] it was -2; in assay [12], -1.68; in assay [13], 0.0903. Besides, the z-score in [14] was inactive: 1.21; in [15], -0.595; in assay [16], -0.16; in [17], inactive: -1.52; in assay [18], -0.573; in assay [19] it was inactive: -4.33. In [20], the z-score is inactive: -1.04.
In the case of `O=P(/N=C1/CC(c2ccc(CO)cc2)=CC(c2cccs2)N1Cc1cccc(OC(F)(F)F)c1)(Oc1ccccc1)Oc1ccccc1` (stereo not given), the composite z-score in assay [1] worked out at 0.167. The z-score is inactive: 0.328 in assay [2]; inactive: 0.917 in assay [3]; 0.423 in assay [4]; inactive: -0.692 in assay [5]; inactive: 0.215 in assay [6]; 0.63 in assay [7]. Also, the z-score in assay [8] was -0.766; in assay [9], 1.52; in [10], -1.85; in [11] it was -3.27; in assay [12], -3.69; in [13], -3.74. For the same compound, the z-score is inactive: 0.0427 in [14]; -0.841 in [15]; -0.31 in [16]; inactive: 0.422 in assay [17]; -0.373 in assay [18]; inactive: -2.83 in assay [19]. Moreover, the z-score in assay [20] was inactive: -1.21.
In assay [1], `O=P(/N=C1/CC(CCCO)=CC(C2CC2)N1Cc1cccc(OC(F)(F)F)c1)(Oc1ccccc1)Oc1ccccc1` (stereo not given) gave a composite z-score of -0.0464. For the same compound, the z-score is inactive: 1.21 in assay [2]; inactive: 0.675 in assay [3]; 0.216 in assay [4]; inactive: -1.12 in [5]; inactive: -0.938 in [6]; -1.13 in assay [7]. Besides, the z-score in assay [8] was 0.14; in assay [9], 0.701; in [10] it was -0.336; in assay [11] it was -0.476; in [12], -1.89; in [13], 0.49. In addition, the z-score in assay [14] is inactive: -0.597; in assay [15] it was -0.573; in [16], 0.549; in [17] it was inactive: 0.0075; in [18] it was 0.31; in [19], inactive: -0.828. Also, the z-score in [20] was inactive: 0.207.
On to `CN1/C(=N\P(=O)(Oc2ccccc2)Oc2ccccc2)CC(c2ccc(CO)cc2)=CC1c1cccs1` (stereo not given), for which the composite z-score in [1] was determined as 0.271. For the same compound, the z-score is inactive: -0.348 in assay [2]; inactive: -1.83 in assay [3]; 1.24 in assay [4]; inactive: 0.175 in assay [5]; inactive: -1.02 in [6]; 1.23 in assay [7]. Moreover, the z-score in assay [8] was 0.343; in assay [9], 0.399; in assay [10], -0.394; in assay [11], 0.844; in [12], 1.01; in [13] it was -1.17. In addition, the z-score was inactive: 0.727 in assay [14]; -0.15 in assay [15]; 1.32 in [16]; inactive: 0.569 in assay [17]; 0.209 in assay [18]; inactive: -0.942 in [19]. In addition, the z-score in assay [20] was inactive: 0.999.

The values are drawn from PubChem BioAssay.
